Experimental data reported in PubChem BioAssay AID1259400 (National Center for Advancing Translational Sciences (NCATS), 2018).
The list shows a part of the results, in another mix than the full data. Calls of active or inactive are those of the source.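 How the source made its calls: active means activity change of -60% or lower, but not beyond a set lower limit; inconclusive means change between -60% and -40%, or beyond the set limit; inactive means change above -40%.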
On the % scale 0 is the no-effect control and ±100 the full control effect.

Amino acid sequences for entries named in this document (tags omitted). A change or cut given only in a name is not applied to a line headed by its entry.
UniProt Q9HBX9: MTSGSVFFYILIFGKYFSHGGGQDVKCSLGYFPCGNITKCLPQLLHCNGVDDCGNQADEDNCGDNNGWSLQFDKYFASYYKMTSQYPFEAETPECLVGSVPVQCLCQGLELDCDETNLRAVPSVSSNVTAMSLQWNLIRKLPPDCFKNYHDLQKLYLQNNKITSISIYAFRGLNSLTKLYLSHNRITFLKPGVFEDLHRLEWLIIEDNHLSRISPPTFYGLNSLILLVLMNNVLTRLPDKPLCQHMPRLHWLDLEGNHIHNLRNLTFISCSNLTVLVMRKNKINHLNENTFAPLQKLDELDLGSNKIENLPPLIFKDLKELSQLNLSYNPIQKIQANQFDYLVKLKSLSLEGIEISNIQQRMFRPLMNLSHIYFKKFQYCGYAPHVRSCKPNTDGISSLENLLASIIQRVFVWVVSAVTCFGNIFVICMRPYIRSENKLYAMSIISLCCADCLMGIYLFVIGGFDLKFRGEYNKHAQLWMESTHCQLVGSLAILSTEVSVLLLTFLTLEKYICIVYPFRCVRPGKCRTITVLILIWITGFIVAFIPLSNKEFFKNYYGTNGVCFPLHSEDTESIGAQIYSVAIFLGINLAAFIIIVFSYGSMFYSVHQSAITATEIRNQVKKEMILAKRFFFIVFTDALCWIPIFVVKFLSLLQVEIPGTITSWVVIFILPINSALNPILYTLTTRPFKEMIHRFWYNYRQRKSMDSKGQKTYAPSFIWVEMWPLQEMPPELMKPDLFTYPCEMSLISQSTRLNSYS

These molecules were tested against Relaxin receptor 1 (Homo sapiens) (UniProt Q9HBX9) (assay: qHTS Assay for Antagonists of the Relaxin Receptor RXFP1). Details: HEK293-RXFP1, relaxin-stimulated cAMP HTRF, 30 min; at 57.5 µM; active compounds read low.
Description: The relaxin hormone is involved in the variety of biological functions in normal tissues and diseases. The role of relaxin is well-established in female reproduction and parturition, mammary gland and endometrial development, maintenance of myometrial quiescence during pregnancy. Relaxin signaling through its G protein-coupled receptor (GPCR) RXFP1 results in ECM remodeling through regulation of collagen deposition, cell invasiveness, proliferation and overall tissue homeostasis. […] Recombinant human relaxin (rhRlx) is currently being tested in clinical trials as a protective agent in congestive heart failure, in treating severe preeclampsia, and as an anti-fibrotic agent in various organs. […] Upon relaxin binding RXFP1 activation leads to the activation of adenylate cyclase (AC) via G?s. cAMP will activate PKA, which phosphorylates many signaling proteins. Thus, detection of cAMP increase is an easy and reliable indication of relaxin receptor activation. To screen for antagonists of the relaxin receptor, a HEK293T cell line stably transfected with RXFP1 was used. RXFP1 activation by relaxin in presence of various concentrations of tested compounds was assayed by changes in cAMP levels as detected with a time-resolved fluorescence energy transfer (TR-FRET) cAMP detection kit.
For the primary screening, we used HTRF(R) (Homogenous Time-Resolved Fluorescence) cAMP HiRange assay (Cisbio Bioassays, 62AM6PEJ). Presence of cAMP in the cell lysate disrupts binding between the Cryptate-labeled anti-cAMP and d2-labeled cAMP pair, leading to a decrease in TR-FRET signal. The libraries were screened at two doses (57microM and 11microM), followed by a confirmation of the hits at 7-point serial dilution in the range of final concentrations [57microM - 78nM]. Data were normalized to the controls for basal activity (buffer only) and 100% activity (5 nM porcine relaxin). The EC50 values were determined from concentration-response data modeled with the standard Hill equation. NCGC Assay Protocol Summary: HiHEK (Hawaiian HEK293 LGR7 stably transfected with human RXFP1) were grown in the following media: DMEM+10%FBS+Pen/Strep + Geneticin (1mg/ml). For the assay, the cells were seeded in DMEM+Pen/Strep (with no serum & selective antibiotics) at 2,100 cells/ 3microl/well with MultiDrop Combi dispenser (Thermo Scientific, Logan, UT) onto white tissue culture treated solid bottom1536-well plates (Greiner #789173-F) and allowed to attach/recover overnight at 37 degrees C, 5% CO2. Next, 23nl/well of compound solutions in DMSO were transferred into wells with a pintool (Kalypsis, San Diego, CA). […] EC80 (relaxin at 50pM final concentration) was dispensed to the rest of the plate except columns 1&2 which were used as a negative control (EC0, buffer only), 1microl/well also. The cells were stimulated by relaxin in the presence of compounds for 30 minutes at 37 degrees C, 5% CO2. The detection reagents were prepared individually by dilution in Lysis buffer (supplied with the assay kit) just prior to dispensing. 1microl/well of cAMP-d2 and 1microl/well anti-cAMP-Eu3+-Cryptate antibodies were added simultaneously with BioRAPTR FRDtrade mark Workstation (Beckman Coulter). The plates were incubated at ambient temperature for 30 minutes and, then, FRET signal was read on Envision plate reader (PerkinElmer, Waltham, MA), at wavelengths 340nm (excitation), 615nm & 665nm (emission of donor and acceptor channels respectively).
For CCCOP(=S)(Nc1nc(N)cc(=O)[nH]1)OCCC, the activity change, negative = inhibition was inactive: -7.01%. In the case of Nc1cccc2c([As](=O)(O)O)cccc12, the activity change, negative = inhibition is reported as inactive: 7.23%. With Cc1ccc(NCCc2c([N+](=O)[O-])cc([N+](=O)[O-])cc2[N+](=O)[O-])cc1 the activity change, negative = inhibition was inactive: -18.1%. CCOP(=O)(Nc1cccc2ccccc12)OCC was tested, and the activity change, negative = inhibition was inactive: 9.57%. In the case of COc1cc(C2NCCC3(OCCO3)C2(C)C)cc(OC)c1OC (stereo unspecified), the activity change, negative = inhibition is reported as inactive: -1.89%. For CS(=O)(=O)c1ccc(Cl)c(NC(=O)COC(=O)C(O)(c2ccccc2)c2ccccc2)c1, the activity change, negative = inhibition was inactive: -8.44%. COc1cc(C(=O)NCC2(N3CCOCC3)CCCCC2)cc(Cl)c1OC(C)C was tested, and the activity change, negative = inhibition was inactive: -3.36%. For O=[As](O)(O)c1cccnc1, the activity change, negative = inhibition was inactive: 19.1%. For O=C(OC1CN2CCC1CC2)c1ccc(Cl)cc1 (stereo unspecified), the activity change, negative = inhibition was inactive: 13.2%. O=[As](O)(c1cccc(O)c1)c1cccc(O)c1 was tested, and the activity change, negative = inhibition was inactive: -4.25%. Cc1cccc(OCC(=O)OC2CN3CCC2CC3)c1 (stereo unspecified) was tested, and the activity change, negative = inhibition was inactive: -1.86%. For NC(=O)Nc1ccc([As](=O)(O)O)cc1, the activity change, negative = inhibition was inactive: 2.34%. For CN(C(=O)Cc1ccc(Cl)c(Cl)c1)[C@H]1CC[C@@]2(CCCO2)C[C@@H]1N1CCCC1, the activity change, negative = inhibition was inactive: -4.96%. In the case of CN(C)C(=O)c1cc([N+](=O)[O-])cc2c1-c1c(cc([N+](=O)[O-])cc1[N+](=O)[O-])C2=O, the activity change, negative = inhibition is reported as active: -84%. For O=[N+]([O-])c1ccc2c(c1)nnn2O, the activity change, negative = inhibition was inactive: 2.38%. CCOP1(=S)c2c(C)nn(CCC#N)c2N=C(c2ccc(F)cc2)N1C (stereo unspecified) was tested, and the activity change, negative = inhibition was inactive: 23.1%. With N#CCCN(C(=O)COC(=O)C(O)(c1ccccc1)c1ccccc1)c1ccc(F)cc1 the activity change, negative = inhibition was inactive: -8.24%. With CS(=O)(=O)c1cc([N+](=O)[O-])c2no[n+]([O-])c2c1 the activity change, negative = inhibition was inactive: -14.4%. With O=P(Nc1nccs1)(c1ccccc1)c1nc2ccccc2s1 (stereo unspecified) the activity change, negative = inhibition was inactive: 4.7%. In the case of O=P(Nc1nccs1)(Oc1ccccc1)Oc1ccccc1, the activity change, negative = inhibition is reported as inactive: 0.209%. CCOP1(=S)c2c(C)nn(CCC#N)c2N=C(c2ccccc2F)N1C (stereo unspecified) was tested, and the activity change, negative = inhibition was inactive: -3.81%. Nc1ccccc1[As](=O)(O)c1ccccc1 was tested, and the activity change, negative = inhibition was inactive: -17.1%. For O=C(O)COc1ccc([As](=O)(O)O)cc1[N+](=O)[O-], the activity change, negative = inhibition was inactive: 9.49%. For O=P1(Nc2ncccn2)COc2ccccc2OC1, the activity change, negative = inhibition was inactive: -1.76%. In the case of O=P1(Nc2ccc(Br)cn2)COc2ccccc2OC1, the activity change, negative = inhibition is reported as inactive: 1.67%. In the case of NS(=O)(=O)c1cccc(NC(=O)COC(=O)C(O)(c2ccccc2)c2ccccc2)c1, the activity change, negative = inhibition is reported as inactive: -5.22%. O=[As](O)(c1cccs1)c1cccs1 was tested, and the activity change, negative = inhibition was inactive: -6.37%. For Cc1ccc(OCC(=O)OC2CN3CCC2CC3)cc1 (stereo unspecified), the activity change, negative = inhibition was inactive: -3.88%. Nc1cccc([As](=O)(O)c2ccccc2)c1 was tested, and the activity change, negative = inhibition was inactive: -6.25%. For Cc1ccc(C(=O)OC2CN3CCC2CC3)cc1 (stereo unspecified), the activity change, negative = inhibition was inactive: -5.89%. For Cc1nn(-c2ccccc2)c2c1P(=O)(N1CCOCC1)N(C)C(c1ccccc1)=N2 (stereo unspecified), the activity change, negative = inhibition was inactive: 24.3%. With CCCC1OP(=O)(Nc2ccccc2)OCC1CC (stereo unspecified) the activity change, negative = inhibition was inactive: 3.6%. In the case of O=C(/C=C/c1ccccc1)OC1CN2CCC1CC2 (stereo unspecified), the activity change, negative = inhibition is reported as inactive: 5.72%. In the case of CN(C)C1(CNC(=O)c2ccc(S(C)(=O)=O)cc2)CCCCC1, the activity change, negative = inhibition is reported as inactive: -5.14%. For COc1ccccc1CNC(=O)COC(=O)C(O)(c1ccccc1)c1ccccc1, the activity change, negative = inhibition was inactive: -5.27%. With CC1(CBr)Cn2c(nc3ccccc3c2=O)S1 (stereo unspecified) the activity change, negative = inhibition was inactive: -9.19%. CC(C)/C=N\N=C(\N)N[N+](=O)[O-] was tested, and the activity change, negative = inhibition was inactive: -8.63%. CCOP(=O)(Nc1ccc(C)cn1)OCC was tested, and the activity change, negative = inhibition was inactive: 5.69%. For CCOP(=O)(NC(=NC(C)c1ccccc1)NC(C)c1ccccc1)OCC (stereo unspecified), the activity change, negative = inhibition was inactive: 5%. With O=P1(Nc2ccccn2)COc2ccccc2OC1 the activity change, negative = inhibition was inactive: 1.75%. CC(C)(C)C(=O)NC(Sc1ncccn1)C(Cl)(Cl)Cl (stereo unspecified) was tested, and the activity change, negative = inhibition was inactive: 1.96%. With O=P1(N(CCCl)CCCl)NCCC(C(F)(F)F)O1 (stereo unspecified) the activity change, negative = inhibition was inactive: 12.7%. For Clc1n[nH]nc1-c1nn[nH][15n]1, the activity change, negative = inhibition was inactive: -8.8%. In the case of CCOC(=O)c1ccc(NC(=O)C(C)(CCl)SC)cc1 (stereo unspecified), the activity change, negative = inhibition is reported as inactive: -7.62%. CSc1ccc(Nc2c([N+](=O)[O-])cc([N+](=O)[O-])cc2[N+](=O)[O-])cc1 was tested, and the activity change, negative = inhibition was inactive: 2.52%. O=C(OC1CN2CCC1CC2)c1cccc([N+](=O)[O-])c1 (stereo unspecified) was tested, and the activity change, negative = inhibition was inactive: 1.53%. With CCC(C)N(CC(C)C)C(=S)SC(NC(C)=O)C(Cl)(Cl)Cl (stereo unspecified) the activity change, negative = inhibition was inactive: 8.17%. With COP1(=S)c2c(C)nn(CCC#N)c2N=C(c2ccc(F)cc2)N1C (stereo unspecified) the activity change, negative = inhibition was inactive: 3.12%. In the case of O=C(Nc1ccncc1[N+](=O)[O-])c1ccc([N+](=O)[O-])cc1[N+](=O)[O-], the activity change, negative = inhibition is reported as inactive: 11%. O=C(COc1ccccc1)OC1CN2CCC1CC2 (stereo unspecified) was tested, and the activity change, negative = inhibition was inactive: -12.3%. With O=C(O)C(=O)c1ccc(N(CCCl)CCCl)cc1 the activity change, negative = inhibition was inactive: -9.07%.
